Biological target: Sigma non-opioid intracellular receptor 1 (Cavia porcellus, UniProt Q60492)
Assay: Displacement of [3H]pentazocine from guinea pig brain membrane sigma 1 receptor incubated for 120 mins

The chains behind the UniProt entries cited, without tags or fusion partners.
UniProt Q60492, whole entry, looked up: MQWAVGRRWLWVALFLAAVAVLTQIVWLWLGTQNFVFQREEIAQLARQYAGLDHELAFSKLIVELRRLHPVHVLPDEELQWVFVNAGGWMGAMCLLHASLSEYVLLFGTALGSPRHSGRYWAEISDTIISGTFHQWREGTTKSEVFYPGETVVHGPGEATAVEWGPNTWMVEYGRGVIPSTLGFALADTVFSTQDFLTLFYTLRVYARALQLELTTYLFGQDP

| Structure (SMILES) | Ki [µM] |
| --- | --- |
| C[C@H]1[C@H]2Cc3ccc(O)cc3[C@@]1(C)CCN2CCc1ccccc1 | 0.0617 |
| C[C@@H]1[C@@H]2Cc3ccc(O)cc3[C@]1(C)CCN2CCc1ccccc1 | 0.0039 |
